Tests used:
Type in all cases: physicochemical
[1] = Absorbance and fluorescence of fluorophore/HSA conjugates in solution; conditions: 2.5 micromolar conjugate, 532 nm filter
[2] = Microwell crossover assay of SNAFL-1/HSA on Oxyphen discs; conditions: 4 mg/mL Oxyphen discs, 3.6:1
[3] = Stability and leaching of membrane-immobilized conjugates
Protocol: Fluorescent HSA conjugates with a 2.5:1 SNAFL-1:HSA offering ratio were prepared as described in Example 4 and diluted to provide concentrations of 0.05, 0.2, 1.0 and 4 mg/mL in phosphate buffered saline (PBS) (pH 7.4). 5 microliter drops were applied via a 20 microliter pipettor to the center of pre-punched porous discs (¼ inch diameter) that were laid on a bench top. The spotted discs were allowed to air dry (about 30 minutes) and then placed in separate desiccators overnight. The dried discs were washed in separate Eppendorf tubes with 2×1 mL of PBS and allowed to soak overnight in 1 mL of PBS. […] Alternatively the discs could be re-dried in desiccators and stored dry. […] The discs had fluorescent signals that were proportional to the concentration of labeled macromolecule applied to each one as measured by the fluorescence assay described in Example 9.
The fluorescent intensity was measured at 620 nm, the fluorescent maximum of the base form of the fluorophore. Excitation used a wide open setting on the halogen lamp that efficiently excites both acid and base forms of SNAFL-1. The reflected light from the source (unmodified disc) had the lowest intensity spectrum. The spectrum of the 0.05 mg/mL disc gave a small increase in fluorescence intensity.
EBIO-3/HSA conjugate was prepared as described in Example 6 at a ratio of 2:1. […]

Substance: SNAFL-1/HSA: SNAFL-1 NHS ester conjugated to human serum albumin, various loadings, in solution or on membrane discs
- fluorescent isosbestic point for pH 6-7 [1]: 572 nm
- crossover with pH 10 spectrum ([2]; pH 4): 579 nm
- crossover with pH 10 spectrum ([2]; pH 6): 592 nm
- crossover with pH 10 spectrum ([2]; pH 7): 600 nm
- crossover with pH 10 spectrum ([2]; pH 8): 611 nm
- dissociation from disc surface in PBS solution ([3]; 2.5:1, 1 mg/mL Oxyphen discs, 30 day PBS soak): did not dissociate significantly
- stability of washed discs in PBS solution ([3]; 2.5:1 on 0.1 micron Oxyphen discs): no degradation after 30 days
